# From PubChem
# In the library only some 1.5% were active in any assay of this set; here they are far more common.
# PGC1a acetyl inh – PGC1a acetylation modulation, inhibitor mode. U2OS PGC1a acetylation, AlphaScreen anti-acetyl-lysine; with virally co-expressed GCN5 acetyltransferase. inhibition, % at 15.6 µM. hit rate 0.17% among 350,000. AID 651687;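 active = every replicate shows inhibition of at least 40%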
# UUG fidelity – modulators of start codon recognition fidelity in yeast. S. cerevisiae UUG-firefly luciferase reporter, luminescence/redox ratio. activity score, % at 18.7 µM. 350,000 tested, 0.13% active;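 active = replicate mean at a twofold rise or more, about +100% in these data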;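 note: firefly luciferase made from a UUG start codon reports start codon fidelity; reporter light over untreated wells divided by growth signal over untreated wells; some hits fall short of that in this replicate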
# Cneo AK release – Cryptococcus neoformans lysis via adenylate kinase release; C. neoformans lysis, adenylate kinase release luminescence, 4 h; normalised: neutral wells 0, clomiphene wells 100; lysis activity, % at 15 µM; hit rate 0.2% among 360,000; AID 651654;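 active = mean lysis activity across replicates of at least 80%, whatever share of replicates individually reach that level; inactive = mean lysis activity below 80%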
#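 Test system: log-phase Cryptococcus neoformans yeast cells; Quantity: yeast cell density of 5 × 10^6 cells/mL; Buffer or medium: YPD; Doses: single compound concentration per well; Timing: 4 h at 37 °C static, read 1 h later; Measured by: AK luminescence; Read-out basis: lysis from increased AK signal; Control set: Clomiphene as positive control.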
# miR122 inh – blocks miR-122 activity in Huh7 sensor cells; Huh7 miR-122 Renilla luciferase sensor, 48 h; neutral wells = 0, positive control = 100; activation (reporter increase), % at 12.5 µM; hit rate 0.3% among 340,000; AID 602342;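 active = mean replicate activation score at least 90 and every replicate individually at or above 90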;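 also: higher luciferase means less miR-122 activity so hits act as miR-122 inhibitors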
# FN deposit inh – fibronectin deposition inhibition; AH1F fibroblasts, Alexa488-fibronectin deposition fluorescence, overnight; inhibition, % at 12.6 µM; hit rate 0.086% among 350,000; AID 743247;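 active = mean inhibition across replicates of 30% or more, regardless of how many single replicates reach that level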
#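 test system = AH1F fibroblasts assembling fluorescent fibronectin matrix | quantity = 10000 AH1F cells per well | buffer or medium = DMEM plus 2% serum, read in PBS | doses = single dose, pinned | incubation = 1 h cell attachment, overnight exposure to compound and label | detection = fluorescence at 485 nm excitation, 525 nm emission | read-out basis = inhibition from reduced deposited-fibronectin fluorescence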
# Env fusion inh – HIV envelope-mediated fusion inhibition | hit rate 1.1% among 360,000 | HeLa-JRFL Env/CEM21 cell fusion, luciferase | inhibition, % at 12.3 µM;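 active = mean replicate inhibition score of at least 50 and every replicate individually at or above 50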
# Hits are given with their value; – = inactive; · = no result; [ ] = dose if it differs, or a comment.
SMILES,PGC1a acetyl inh,UUG fidelity,Cneo AK release,miR122 inh,FN deposit inh,Env fusion inh
Cn1cc(C(=O)NCC(=O)Nc2ccccc2Br)cn1,–,–,–,–,–,·
O=C(CNC(=O)c1cccc(-n2cccc2)c1)Nc1ccccc1Br,–,–,–,–,–,70
CN(C(=S)NC1CCCCC1)C1(c2ccccc2Cl)CCCCC1=O (stereo not given),·,·,·,·,–,93
COc1ccc(NS(=O)(=O)c2cc(NC(=O)c3ccc(=O)[nH]c3)ccc2N2CCCC2)cc1,–,–,–,155,–,–
COc1ccc(NS(=O)(=O)c2cc(NC(=O)C3CC3)ccc2N2CCCCC2)cc1,–,–,–,–,·,–
COc1ccc(NS(=O)(=O)c2cc(NC(=O)c3ccco3)ccc2N2CCCCC2)cc1,·,·,·,209,–,–
O=C(Nc1cccc2ccccc12)c1csc([C@@H]2O[C@H](CO)[C@H](O)[C@H](O)[C@H]2O)n1,–,–,–,–,–,–
C[C@@H]1CN([C@H](C)CO)C(=O)c2cc(C#C[C@@H](C)O)cnc2O[C@H]1CN(C)C(=O)c1ccncc1,–,–,–,–,·,–
O=C(c1cccc(-c2cccc3nccn23)c1)N1CCOCC1,·,–,–,–,–,–
CCCNC(=S)N1CCC(C(=O)c2ccc(OC)cc2)CC1,–,–,–,–,–,–
CCC(C)c1ccc(NC(=S)N2CCN(c3ccccn3)CC2)cc1 (stereo not given),·,–,105,·,–,·
S=C(Nc1ccccc1)N1CCN(c2ccccn2)CC1,–,·,·,·,–,–
CO[C@@H](C(=O)N(C)C[C@H]1OCc2ccccc2-c2c(n(C)c3ccccc23)C(=O)N([C@@H](C)CO)C[C@H]1C)c1ccccc1,–,·,·,·,–,–
CO[C@@H](C(=O)N(C)C[C@H]1OCc2ccccc2-c2c(n(C)c3ccccc23)C(=O)N([C@@H](C)CO)C[C@@H]1C)c1ccccc1,–,·,–,·,–,55[16.7 µM]
C[C@H](CO)N1C[C@H](C)[C@H](CN(C)C(=O)N[C@H](C)c2ccccc2)OCc2ccccc2-c2c(n(C)c3ccccc23)C1=O,–,–,–,–,–,75
COc1ccc(C2CC(c3ccccc3C)n3nc(N)nc3N2)cc1 (stereo not given),–,–,–,–,–,–
CCOc1ccc(C2CC(c3ccccc3C)n3nc(N)nc3N2)cc1 (stereo not given),–,–,–,–,–,65
CN1CCN(C(=O)C[C@@H]2CC[C@@H]3[C@H](COC[C@@H](O)CN3C(=O)Cc3ccccc3)O2)CC1,–,·,–,–,–,–
O=C(C[C@@H]1CC[C@@H]2[C@H](COC[C@H](O)CN2Cc2cccc(C(F)(F)F)c2)O1)NCc1ccccc1,–,·,97,–,–,·
O=C(C[C@H]1CC[C@@H]2[C@H](COC[C@@H](O)CN2C(=O)c2cnccn2)O1)NCc1ccc(Oc2ccccc2)cc1,–,·,105,–,–,·
CN1CCN(C(=O)C[C@@H]2CC[C@H]3[C@@H](COC[C@H](O)CN3C(=O)Cc3ccccc3)O2)CC1,–,·,94,–,–,–
O=C(C[C@H]1CC[C@H]2[C@@H](COC[C@H](O)CN2CCC(F)(F)F)O1)NCc1ccc(Oc2ccccc2)cc1,–,·,–,–,–,56[16.7 µM]
C[N+](C)(C)CCOC(=O)CCC(=O)OCC[N+](C)(C)C,–,–,–,–,–,–
COCCNC(=O)C[C@@H]1CC[C@H]2[C@@H](COC[C@H](O)CN2Cc2cccc(-c3ccncc3)c2)O1,–,·,109,–,–,–
O=C(CSc1nnc(-c2ccccc2)o1)Nc1ccccc1F,·,–,–,–,–,–
O=C(CSc1nnc(-c2ccc(Br)cc2)o1)Nc1cccc(C(=O)O)c1,–,–,–,–,·,88
Cc1ccc(-c2nnc(SCC(=O)Nc3ccccc3F)o2)cc1,·,–,–,·,–,66
O=C(Nc1ccc(F)cc1)NC1CCN(Cc2nnnn2Cc2ccco2)CC1,–,–,–,–,·,61
Cc1cc(C)c(S(=O)(=O)N2C[C@H]3CON(C)[C@H]3C[C@H]2c2ccc(N3CCCCC3)cc2)c(C)c1,–,–,–,–,–,–
